Test results from BindingDB's records for doi:10.1021/jm048962u (The Burnham Institute, 2005).

Sequences of proteins named here, by UniProt entry; tags and fusion partners are left off. A change or cut given only in a name is not applied to a line headed by its entry.
UniProt P31749: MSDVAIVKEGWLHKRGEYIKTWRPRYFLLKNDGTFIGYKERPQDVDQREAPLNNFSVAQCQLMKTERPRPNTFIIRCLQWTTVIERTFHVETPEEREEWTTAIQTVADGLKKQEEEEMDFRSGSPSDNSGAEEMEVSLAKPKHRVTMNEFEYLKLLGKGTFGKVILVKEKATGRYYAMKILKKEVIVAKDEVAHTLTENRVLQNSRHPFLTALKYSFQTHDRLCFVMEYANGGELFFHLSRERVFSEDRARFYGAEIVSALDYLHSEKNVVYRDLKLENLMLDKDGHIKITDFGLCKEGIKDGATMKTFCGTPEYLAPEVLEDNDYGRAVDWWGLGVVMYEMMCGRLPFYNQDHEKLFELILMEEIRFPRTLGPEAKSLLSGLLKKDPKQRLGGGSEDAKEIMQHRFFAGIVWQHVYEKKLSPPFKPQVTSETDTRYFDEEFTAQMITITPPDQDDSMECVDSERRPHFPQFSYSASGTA

Molecular target: RAC-alpha serine/threonine-protein kinase (Homo sapiens, UniProt P31749)
Assay: Z-LYTE Kinase Assy
Conditions: pH 7.5; 25 °C
Source text: The Z-LYTE assay (Invitrogen Corporation) employs a FRET-based, coupled-enzyme format and is based on the differential sensitivity of phosphorylated and non-phosphorylated peptides to proteolytic cleavage. A site-specific protease recognizes and cleaves nonphosphorylated peptides. […] Cleavage disrupts FRET between the donor (coumarin) and acceptor (fluorescein) fluorophores on the peptide, whereas uncleaved, phosphorylated peptides maintain FRET. The ratio of donor emission to acceptor emission after excitation of the donor fluorophore at 400 nm, quantitates reaction progress.

With `C=c1c(C#N)c2[nH]c(N)c(C#N)c(C)c-2c1=Cc1ccc(-c2ccc(C(=O)O)cc2)o1` [4-(5-{[(5E)-2-amino-3,7-dicyano-4,6-dimethyl-5H-cyclopenta[b]pyridin-5-ylidene]methyl}furan-2-yl)benzoic acid] the IC50 was 126 µM.
